For this assay, the species on record is Homo sapiens. Nature of the assay: Induction of human pluripotent stem cell derived oligocortical organoid differentiation assessed as increase in CCI-positive maturing oligodendrocytes percentage at 350 to 1750 nM incubated for 30 days by immunostaining analysis. In kind it is functional, tissue-based. The note with it: dose lower […], dose upper 1750.0 nM, time 30.0 day.

Calls of active or inactive are those of the source. No cut-off for these calls is given here.

On to `CCN1C(=O)N(c2ccc(C3CC3)cc2)C(=O)C12CCN(CC1CCOCC1)CC2`, for which the outcome was Active.

These data come from ChEMBL document CHEMBL5518221, “Discovery and Optimization of Selective Brain-Penetrant EBP Inhibitors that Enhance Oligodendrocyte Formation” (J Med Chem, 2024).
